Target: DYRK1A (Rattus norvegicus, UniProt Q63470)
Experiment: DYRK1A in vitro kinase assay (33P-ATP, Woodtide substrate)
Assay type: biochemical
Procedure: Buffer A: MgCl2 (10 mM), 1 mM ethylene glycol-bis(2-aminoethylether)-N,N,N',N'-tetraacetic acid (EGTA), 1 mM dithiothreitol (DTT), 25 mM Tris-HCl pH 7.5, 50 μg heparin/mL.
Controls were performed with appropriate dilutions of dimethylsulfoxide (DMSO). IC50 values were calculated from dose-response curves established by Sigma-Plots. The GSK-3, CK1, DYRK1A and CLK1 peptide substrates were obtained from Proteogenix (Oberhausbergen, France).
CDK5/p25. (Human, recombinant) was prepared as previously described. […] ATP (3000 Ci/mmol; 10 mCi/mL) in a final volume of 30 μL. After 30 min incubation at 30 °C, 25 μL aliquots of supernatant were spotted onto sheets of Whatman P81 phosphocellulose paper, and 20 s later, the filters were washed eight times (for at least 5 min each time) in a solution of 10 mL phosphoric acid/L of water. The wet filters were counted in the presence of 1 mL ACS (Amersham) scintillation fluid.

**Q.** With `COC(=N)c1nc2ccc3ncnc(Nc4ccc(OC)cc4)c3c2s1` [Compound 7i, Methyl 9-(4-methoxyphenylamino)thiazolo[5,4-f]quinazoline-2-carbimidate] as the molecule, how does the IC50 read?
**A.** 40 nM

**Q.** For `COC(=N)c1nc2ccc3ncnc(Nc4ccc(Br)cc4F)c3c2s1` [Compound 9i, Methyl 9-(4-bromo-2-fluorophenylamino)thiazolo[5,4-f]quinazoline-2-carbimidate], which IC50 is on record?
**A.** 50 nM

Source: paper PMC6270991, “Design and Synthesis of Thiazolo[5,4-f]quinazolines as DYRK1A Inhibitors, Part I” (Molecules, 2014)
